Values of other authors as cited in US20200163956A1, “DIRECT BRAIN ADMINISTRATION OF CHEMOTHERAPEUTICS TO THE CSF FOR PATIENTS WITH PRIMARY AND SECONDARY BRAIN TUMORS” (Cerebral Therapeutics LLC, priority 2016, published 2020).

Details: in vivo, iv

## trastuzumab: humanized IgG1 kappa monoclonal antibody for the treatment of metastatic breast cancer
  CSF level lower than plasma levels: 300 fold
